In this assay the target is T1, human SGLT2 (Homo sapiens, UniProt P31639).
T1 construct: expressed in transfected cells; host or cells: CHO-K1
T1 sequence (P31639 1-672): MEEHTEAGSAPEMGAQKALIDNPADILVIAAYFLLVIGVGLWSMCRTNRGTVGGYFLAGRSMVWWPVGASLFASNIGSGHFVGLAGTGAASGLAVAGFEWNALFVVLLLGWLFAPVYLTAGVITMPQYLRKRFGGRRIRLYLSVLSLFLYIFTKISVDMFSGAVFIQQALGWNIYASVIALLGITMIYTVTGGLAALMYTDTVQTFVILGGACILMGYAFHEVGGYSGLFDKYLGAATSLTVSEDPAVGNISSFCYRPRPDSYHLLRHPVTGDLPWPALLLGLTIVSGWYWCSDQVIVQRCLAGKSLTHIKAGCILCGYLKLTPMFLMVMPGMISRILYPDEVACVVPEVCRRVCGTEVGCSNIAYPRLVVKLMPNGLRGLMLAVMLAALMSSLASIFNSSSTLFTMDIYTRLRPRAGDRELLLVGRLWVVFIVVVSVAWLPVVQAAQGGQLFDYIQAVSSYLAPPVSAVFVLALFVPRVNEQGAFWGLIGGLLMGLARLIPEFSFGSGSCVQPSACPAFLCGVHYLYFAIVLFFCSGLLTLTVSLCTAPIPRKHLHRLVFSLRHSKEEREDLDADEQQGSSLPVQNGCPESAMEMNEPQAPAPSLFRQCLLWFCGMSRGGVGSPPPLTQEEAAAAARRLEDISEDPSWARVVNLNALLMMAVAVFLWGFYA
Description: SGLT2 assay: Na-dependent 14C-AMG uptake in CHO-K1 cells stably expressing human SGLT2. Format: cell-based. The following applies: 500 μM AMG, 2 hours at 37° C. On the procedure: SGLT1 and SGLT2 were cloned in form of cDNA from human small intestine (Genbank M24847), and from human kidney (Genbank M95549), respectively. Subsequently, each full cDNA was subcloned into pcDNA with each construct's integrity verified through follow-on sequencing. To generate CHO-K1 cells that stably express human SGLT1 or human SGLT2, CHO-K1 cells were transfected using DMRIE-C reagent (Life Technologies, Gaithersburg, Md.). Transfected cells were then selected in the presence of 500 μg/ml of the Geneticin (G418 Cellgro Catalog No. 30234-CI)
Individual clones were then characterized using the following cell-based assay for sodium-dependent glucose transport:
Inhibition of SGLT1 and SGLT2 activity was assessed in CHO K1 cells stably expressing either human SGLT1 or SGLT2, using the SGLT specific glucose analog methyl-glucopyranoside (Sigma Catalog No. M-9376). Cells were plated (45,000 cells/well) in white wall 96-well plates (COSTAR, Cat#3903) for 24 hours in growth medium, then a final concentration of 10 mM Na-Butyrate (ALDRICH Cat#30341-0) was added. The cells were incubated for 24 hours. […] The cells were then solubilized by adding 60 μl of MICROSCINT™20 and the Na-dependent ^14C-AMG uptake was quantified by measuring radioactivity. Plates were counted in a TopCount (Packard, Meriden, Conn.)

The values that follow come from patent publication US10815210B2, “Benzocyclobutane derivatives useful as dual SGLT1 / SGLT2 modulators” (Janssen Pharmaceutica NV, priority 2016, dated 2020).

One may read the IC50 as the concentration that inhibits the measured activity by half. Read a low IC50 as inhibition by little substance.

Each structure is given as a SMILES string.

For `OC[C@H]1O[C@@H](c2cc(Cc3ccc4c(c3)CC4)c(Cl)cc2O)[C@H](O)[C@@H](O)[C@@H]1O` [Compound 8, (2S,3R,4R,5S,6R)-2-(5-(bicyclo[4.2.0]octa-1(6),2,4-trien-3-ylmethyl)-4-chloro-2-hydroxyphenyl)-6-(hydroxymethyl)oxane-3,4,5-triol], the IC50 worked out at 1 nM. That is a single-digit nanomolar value.

As to `[2H]C([2H])(c1ccc2c(c1)CC2)c1cc([C@@H]2O[C@H](CO)[C@@H](O)[C@H](O)[C@H]2O)c(O)cc1Cl` [Compound 55, (2S,3R,4R,S,6R)-2-(5-[bicyclo[4.2.0]octa-1(6),2,4-trien-3-yl(dideuterium)methyl]-4-chloro-2-hydroxyphenyl)-6-(hydroxymethyl)oxane-3,4,5-triol], half-maximal inhibition (IC50) was put at 1 nM.
